Earlier results on one compound are cited in patent US20240280594A1, “MULTIWELL PLATE LIPOPHILICITY ASSAY” (Hoffmann-La Roche Inc., priority 2021, published 2024).

SMILES strings stand for the structures. Only a part of the results on these compounds is given; other tests are left out.

For the series the following is noted: shake flask, pH 7.4, average literature value; cited from earlier work.

On to `CCC(=O)N(c1ccccc1)C1CCN(CCc2ccccc2)CC1`, for which the Literature LogD was 2.86.
